We go through 74 compounds from PubChem BioAssay AID488837 (National Center for Advancing Translational Sciences (NCATS), 2010).

Amino acid sequences for entries named in this document (tags omitted).
UniProt O00167, whole entry: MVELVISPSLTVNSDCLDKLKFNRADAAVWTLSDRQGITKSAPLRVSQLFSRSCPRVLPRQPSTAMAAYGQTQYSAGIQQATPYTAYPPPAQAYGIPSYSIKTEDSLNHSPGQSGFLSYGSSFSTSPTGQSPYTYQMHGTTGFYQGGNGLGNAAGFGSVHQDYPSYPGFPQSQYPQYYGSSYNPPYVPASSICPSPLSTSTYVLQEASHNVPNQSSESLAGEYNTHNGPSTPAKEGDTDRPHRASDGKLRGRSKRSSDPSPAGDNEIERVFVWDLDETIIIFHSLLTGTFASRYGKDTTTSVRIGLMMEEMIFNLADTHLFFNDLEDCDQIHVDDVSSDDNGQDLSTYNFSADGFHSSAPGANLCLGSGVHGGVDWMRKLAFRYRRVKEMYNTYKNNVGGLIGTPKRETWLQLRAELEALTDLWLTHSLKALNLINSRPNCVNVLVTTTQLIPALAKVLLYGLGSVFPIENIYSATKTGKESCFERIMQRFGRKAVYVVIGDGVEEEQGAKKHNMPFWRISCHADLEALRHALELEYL

Molecules are shown by their SMILES. Only a part is listed here, and it is no random draw. Some salts and complexes are drawn in separate pieces, as the source files them; their charges need not balance. Activity calls are given as the source filed them. The call rests on the fitted dose curve; in most records, active means well fitted inhibition curve with a large enough effect; inconclusive means small, poorly fitted or top-dose-only effect, or effect the other way; inactive means flat fitted curve, though single readings scatter.
On the % scale 0 is the no-effect control and ±100 the full control effect.

The target of the assay is Protein phosphatase EYA2 (Homo sapiens) (UniProt O00167). Briefly: qHTS Assay for Inhibitors of the Phosphatase Activity of Eya2. The settings on record: recombinant Eya2, OMFP fluorescence dephosphorylation (OMFP is methylfluorescein phosphate); at 76.9 µM (top of the series). From the text:
The Eya family of proteins are essential co-activators of the Six1 transcription factor. Six1 is a developmental gene that is abnormally re-expressed in a large percentage of breast cancers. This over-expression plays a causal role in the initiation and metastatic development of breast cancers. The Eya family of proteins was also found to contain a unique HAD phosphatase domain with protein tyrosine phosphatase activity which can potentially play a role in Six1-mediated breast tumorigenesis. […] We have developed and optimized a 1536 well fluorescence-based HTS assay targeting the phosphatase activity of Eya2. Inhibitors found against Eya2 could serve as potential therapeutic tools to inhibit Six1-mediated breast tumorigenesis and to increase the efficiency of radiation and certain chemo therapy. These inhibitors could also be used as chemical probes to study the function of Eya2's phosphatase activity and its role in Six1-mediated breast tumorigenesis.
The Eya2 enzyme was kindly provided by the laboratory of Dr. Rui Zhao. The 3-O-methyl-fluorescein phosphate (OMFP) substrate and all buffer reagents were purchased from Sigma Aldrich. qHTS Assay Setup: 1. Buffer- 50 mM HEPES pH 7.5, 50 mM NaCl, 5 uM MgCl2, 0.05% BSA, 1 mM DTT. 2. OMFP Stock- 10 mM solution prepared in 100% DMSO and stored in single use aliquots at -20C. Assay Procedure- 1. Dispense 1.5 ul per well of Eya2 at 0.2 uM in black medium binding 1536 well Greiner plate 2. Transfer 23 nl of compound and control compound (EGTA) to plate 3. Incubate at ambient for 10 minutes 4. Dispense 1.5 ul per well of OMFP at 50 uM 5. Incubate at ambient for 10 minutes 6. Read on ViewLux using Excitation = 485 nm, Emission = 525 nm
Turning to `O=C(NCC1(N2CCCCC2)CCCCC1)c1ccco1`, the activity, negative = inhibition is inactive: 14.8%.

Consider `CN(C)c1ccc(C(=O)NCC2(N3CCCCC3)CCCCC2)cc1`, for which the activity, negative = inhibition was inactive: -29.6%. The result for `CCN1CCC(Nc2cccc(F)c2)CC1` reads inactive: -5.59%; that for `Cc1ccc(C(=O)NCC2(N3CCCCC3)CCCCC2)o1`, inactive: 6.06%; that for `Fc1ccccc1NC1CCN(Cc2ccccc2)CC1`, inactive: -1.09%.

For the compound `COc1cc(OC)cc(C(=O)NCC2(N3CCCCC3)CCCCC2)c1`, the activity, negative = inhibition is inactive: -7.7%. The result for `CN1CCC(Nc2ccc(Cl)cc2)CC1` reads inactive: -1.86%. The result for `CCCOc1ccc(C)cc1CN(CCCl)CCCl` reads inactive: -13.1%; that for `COc1cccc(C(=O)N(c2cc(C)cc(C)c2)C2CCN(C(=O)OC(C)(C)C)CC2)c1`, inactive: -21.3%. On to `COc1cc(OC)cc(C(=O)NCC2(N3CCOCC3)CCCCC2)c1`, for which the activity, negative = inhibition is inactive: 6.37%. Take `CCC(CO)(C(=O)OC1CN2CCC1CC2)c1ccccc1` (centres undefined): the activity, negative = inhibition was inactive: 6.61%. Take `CC(C)(C)OC(=O)N1CCC(Nc2ccccc2)CC1`: the activity, negative = inhibition was inactive: 1.7%. With `O=C(O)C1(Nc2ccccc2)CCN(Cc2ccccc2)CC1`, the activity, negative = inhibition was inactive: 22.6%.

On to `CCCOc1ccc(C(=O)NCC2(N(C)C)CCCCC2)cc1`, for which the activity, negative = inhibition was inactive: 5.34%.

Regarding `CCOc1ncccc1C(=O)NCC1(N2CCOCC2)CCCCC1`, the activity, negative = inhibition was inactive: -0.872%.

Consider `CN1CCC(Nc2ccc(F)c(Cl)c2)CC1`, for which the activity, negative = inhibition was inactive: -3.9%. The result for `O=C(OC1CN2CCC1CC2)C1c2ccccc2C=Cc2ccccc21` (centres undefined) reads inactive: 2.97%; that for `CCc1cc(C(=O)NCC2(N3CCCCC3)CCCCC2)sc1C`, inactive: -5.9%; that for `O=C(O)c1cccc(Nc2c([N+](=O)[O-])cc([N+](=O)[O-])cc2[N+](=O)[O-])c1`, inactive: -26.2%. The result for `CCOC(=O)N1CCC(Nc2ccc(C)cc2)CC1` reads inactive: -7.2%; that for `N/C(=N\O)c1c(N)no[n+]1[O-]`, inactive: 2.62%; that for `COc1ccc(C(=O)NCC2(N3CCOCC3)CCCCC2)cc1OC`, inactive: 8.32%.

Take `COc1cc(C(=O)NCC2(N3CCOCC3)CCCCC2)cc(OC)c1C`: the activity, negative = inhibition was inactive: 1.71%. With `O=C(NCC1(N2CCOCC2)CCCCC1)c1cc(Br)ccc1Cl`, the activity, negative = inhibition was inactive: -21.6%.

Regarding `CN(C)C1(CNC(=O)c2cccc(C#N)c2)CCCCC1`, the activity, negative = inhibition was inactive: 3.9%. `c1ccc(CN2CCC(Nc3ccccc3)CC2)cc1`: the activity, negative = inhibition was inactive: 18.9%.

For the compound `CCCN1CCC(Nc2cc(OC)cc(OC)c2)CC1`, the activity, negative = inhibition was inactive: -4.33%. As for `CCOC(=O)C(CC)C1=NC(C)(C)Cc2ccccc21.O=[N+]([O-])c1cc([N+](=O)[O-])c(O)c([N+](=O)[O-])c1` (centres undefined), the activity, negative = inhibition is inactive: -18.4%. The result for `N#Cc1ccc(C(=O)NCC2(N3CCCCC3)CCCCC2)cc1` reads inactive: -4.97%; that for `CC(C)(C)OC(=O)N1CCC(N(C(=O)c2ccccc2)c2ccc(Cl)cc2)CC1`, inactive: -5.5%. The result for `O=C(NCC1(N2CCOCC2)CCCCC1)c1cc(=O)[nH]c2ccccc12` reads inactive: 3.21%; that for `COc1cc(C(=O)NCC2(N3CCCCC3)CCCCC2)ccc1OC(F)F`, inactive: 7.25%. Consider `COc1ccc(NC2CCN(C(=O)OC(C)(C)C)CC2)cc1`, for which the activity, negative = inhibition is inactive: 9.83%. The result for `CC(C)c1ccc(C(=O)NCC2(N3CCOCC3)CCCCC2)cc1` reads inactive: 13.6%. The result for `CN1CCN(CCOC(=O)C(O)(c2ccccc2)c2ccccc2)CC1` reads inactive: 3.75%; that for `O=[N+]([O-])c1cc([N+](=O)[O-])c(NCC2CCS(=O)(=O)C2)c([N+](=O)[O-])c1` (centres undefined), inactive: 6.53%. Turning to `O=C(NCC1(N2CCCCC2)CCCCC1)c1cccc(C(F)(F)F)c1`, the activity, negative = inhibition is inactive: 1.18%. The result for `CCN1CCC(Nc2ccc(Cl)cc2)CC1` reads inactive: -3.84%. As to `N#CC1(Nc2ccccc2)CCN(CCc2ccccc2)CC1`, the activity, negative = inhibition was inactive: -1.98%.

On to `CSc1ccc(C(=O)NCC2(N3CCOCC3)CCCCC2)cc1`, for which the activity, negative = inhibition is inactive: 17.6%. The result for `O=C(NCC1(N2CCCCC2)CCCCC1)c1cccc([N+](=O)[O-])c1` reads inactive: 1.33%; that for `O=C(NCC1(N2CCCCC2)CCCCC1)c1ccc(OC(F)F)cc1`, inactive: 0.566%. The result for `CCCOc1ccc(C(=O)NCC2(N(C)C)CCCCC2)cc1OC` reads inactive: -1.21%. The result for `O=C(OC1CN2CCC1CC2)c1ccc([N+](=O)[O-])cc1` (centres undefined) reads inactive: -6.92%; that for `O=C(NCC1(N2CCCCC2)CCCCC1)c1cncc(Br)c1`, inactive: -5.1%; that for `COc1ccc2c(c1O)-c1c(O)c(OC)cc3c1[C@H](C2)[N+](C)(C)CC3.O=[N+]([O-])c1cc([N+](=O)[O-])c([O-])c([N+](=O)[O-])c1[O-]`, inactive: 2.33%. As for `COc1cc(OC)c(C(=O)NCC2(N(C)C)CCCCC2)cc1OC`, the activity, negative = inhibition is inactive: 16%. The result for `O=C(NCC1(N2CCOCC2)CCCCC1)c1cc(F)c(F)cc1Cl` reads inactive: -19.2%; that for `CC(C)c1ccc(NC2CCN(C(=O)OC(C)(C)C)CC2)cc1`, inactive: -13.8%. With `COc1ccc(CN(CCCl)CCCl)cc1Cl`, the activity, negative = inhibition is inactive: 2.44%. The result for `CN(C)c1cccc(C(=O)NCC2(N3CCCCC3)CCCCC2)c1` reads inactive: -1.52%; that for `O=[N+]([O-])c1cc([N+](=O)[O-])c(OC2CCCCC2O)c([N+](=O)[O-])c1` (centres undefined), inactive: 11.1%. The result for `O=C(OC1CN2CCC1CC2)C1c2ccccc2Oc2ccccc21` (centres undefined) reads inactive: -20.5%; that for `N#CC1(Nc2ccccc2)CCN(Cc2ccccc2)CC1`, inactive: 0.386%; that for `O=C(NCC1(N2CCCCC2)CCCCC1)c1ccc(Cl)s1`, inactive: 8.52%. Turning to `COc1ccc(Cl)cc1C(=O)NCC1(N2CCOCC2)CCCCC1`, the activity, negative = inhibition is inactive: -8.9%. The result for `CCOC(=O)N1CCC(Nc2ccc(OC)cc2)CC1` reads inactive: 7.99%; that for `O=C(NCC1(N2CCCCC2)CCCCC1)c1ccc(Cl)nc1`, inactive: -29.5%. In the case of `Cc1cc(C)cc(N(C(=O)c2ccccc2)C2CCN(C(=O)OC(C)(C)C)CC2)c1`, the activity, negative = inhibition is inactive: -11.6%. The result for `O=C(NCC1(N2CCOCC2)CCCCC1)c1cc2ccccc2o1` reads inactive: -8.92%. The result for `CSc1ccccc1C(=O)NCC1(N2CCCCC2)CCCCC1` reads inactive: 14.7%.

With `COc1ccc(C(=O)NCC2(N3CCCCC3)CCCCC2)cc1`, the activity, negative = inhibition was inactive: -3.96%.

For `COc1ccc(C(=O)NCC2(N3CCCCC3)CCCCC2)c(OC)c1OC`, the activity, negative = inhibition was inactive: -2.43%. `CC(C)(C)OC(=O)N1CCC(N(C(=O)c2ccccc2)c2ccc(F)cc2)CC1`: the activity, negative = inhibition is inactive: -11.6%. Turning to `O=C(NCC1(N2CCCCC2)CCCCC1)c1ccc(=O)[nH]c1`, the activity, negative = inhibition was inactive: 3.52%.

For `O=C(NCC1(N2CCCCC2)CCCCC1)c1cccs1`, the activity, negative = inhibition was inactive: 32.1%. `COc1cc(C(=O)NCC2(N(C)C)CCCCC2)ccc1OC(F)F`: the activity, negative = inhibition was inactive: -19.3%. The result for `CCOC(=O)N1CCC(Nc2cccc(C)c2)CC1` reads inactive: -1.02%; that for `Cc1ccc(OCC(C)C)c(CN(CCCl)CCCl)c1`, inactive: 11%. Take `O=C(NCC1(N2CCCCC2)CCCCC1)c1ccc(F)cc1`: the activity, negative = inhibition was inactive: 4.61%. The result for `CCCCOc1ccc(C(=O)NCC2(N3CCOCC3)CCCCC2)cc1` reads inactive: 16.8%.

In the case of `CCOC(=O)N1CCC(Nc2ccc(F)cc2)CC1`, the activity, negative = inhibition is inactive: 5.45%. The result for `COc1ccc(NC2CCN(CCc3ccccc3)CC2)c(OC)c1` reads inactive: -0.729%; that for `CCOc1ccc(C)cc1CN(CCCl)CCCl`, inactive: 1.22%.
